Molecular target: Transient receptor potential cation channel subfamily V member 1 (Rattus norvegicus, UniProt O35433)
Assay: In vitro inhibition of [3H]RTX binding to rat TRPV1 expressed in CHO cells
Format: cell-based

Amino acid sequences for entries named in this document (tags omitted).
UniProt O35433, whole entry: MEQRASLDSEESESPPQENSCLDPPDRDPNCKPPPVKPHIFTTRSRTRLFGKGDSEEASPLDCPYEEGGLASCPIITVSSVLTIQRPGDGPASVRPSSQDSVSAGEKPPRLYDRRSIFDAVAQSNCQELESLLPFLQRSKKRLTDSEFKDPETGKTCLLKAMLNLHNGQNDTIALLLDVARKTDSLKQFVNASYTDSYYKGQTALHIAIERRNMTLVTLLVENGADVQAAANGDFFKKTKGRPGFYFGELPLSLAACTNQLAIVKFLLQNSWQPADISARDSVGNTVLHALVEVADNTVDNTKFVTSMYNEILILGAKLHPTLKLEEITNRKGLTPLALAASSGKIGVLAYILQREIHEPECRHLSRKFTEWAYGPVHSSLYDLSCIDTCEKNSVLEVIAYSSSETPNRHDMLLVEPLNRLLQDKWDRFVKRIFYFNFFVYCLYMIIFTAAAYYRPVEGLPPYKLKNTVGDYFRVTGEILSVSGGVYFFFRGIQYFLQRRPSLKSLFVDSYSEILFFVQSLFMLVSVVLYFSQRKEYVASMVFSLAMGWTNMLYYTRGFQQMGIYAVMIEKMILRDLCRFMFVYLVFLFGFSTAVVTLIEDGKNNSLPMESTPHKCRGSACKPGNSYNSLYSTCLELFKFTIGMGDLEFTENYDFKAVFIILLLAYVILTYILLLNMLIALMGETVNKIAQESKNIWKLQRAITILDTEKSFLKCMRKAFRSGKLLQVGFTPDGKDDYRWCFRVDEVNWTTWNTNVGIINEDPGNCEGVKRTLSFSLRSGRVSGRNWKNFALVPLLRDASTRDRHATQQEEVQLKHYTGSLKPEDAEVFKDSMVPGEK

Ki [nM]	SMILES
12100	CC(C)(C)c1ccc(CNC(=S)NNc2ccc(NS(C)(=O)=O)cc2)cc1
1330	CC(C)(C)c1ccc(CN(O)C(=S)NCc2ccc(NS(C)(=O)=O)c([N+](=O)[O-])c2)cc1

SMILES	Ki [nM]
CC(C)(C)c1ccc(CNC(=S)NCc2ccc(NS(C)(=O)=O)cc2)cc1	63
